Antibody variant affinities, Ab-14 light chain, assay B

All variants were tested on one target, the spike HR2 peptide PDVDLGDISGINAS (SARS-CoV-2).

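The parent was found by panning a naive human phage display library on the peptide. This is the validation round: designs drawn from the data on random variants, tested in the same kind of assay. Group labels follow the data file (En: ensemble of fine-tuned language models; GP: Gaussian process model; HC: hill climbing; Gen: genetic algorithm; Gibbs: Gibbs sampling; a sequence that several methods proposed may carry one label only). Affinity was read by AlphaSeq, a pooled yeast mating assay with surface-displayed partners. After mating in shaken culture at 30 °C for 16 h, diploids were selected and their barcode pairs sequenced. Scores were corrected for input abundance and mapped to Kd with protein pairs of known affinity run in the same pool. There are six technical replicates.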

The variants keep the heavy chain, the linker and the frameworks of Ab-14 (scFv order VH, the linker GGGGSGGGGSGGGGS, VL).
VH: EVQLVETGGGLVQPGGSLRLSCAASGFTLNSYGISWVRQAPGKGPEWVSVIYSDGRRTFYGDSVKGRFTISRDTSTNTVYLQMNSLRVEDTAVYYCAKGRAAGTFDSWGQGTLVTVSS
VL: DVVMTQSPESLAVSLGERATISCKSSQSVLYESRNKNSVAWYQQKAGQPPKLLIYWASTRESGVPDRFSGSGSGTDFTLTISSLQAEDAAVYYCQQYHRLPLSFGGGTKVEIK

The parent's light chain CDRs are KSSQSVLYESRNKNSVA, WASTRES, QQYHRLPLS; each variant's own CDRs replace them letter for letter.
Variants here have more than six changes.
Values are apparent Kd, the geometric mean of the replicates that gave a signal; lower means stronger binding.
A pair that was not seen in any replicate is written "nd"; this usually means weak binding, but a binder can also be missed.
Nonspecific signal, from three strains lacking the peptide, appeared in 4% of pairings of all light chain designs, centred on 430 nM (5% of these signals below 38 nM); values are not corrected for it.
The parent sequence was in this pool as ten entries: three were never detected, three once, and four in most replicates, with averages from 2.2 nM to 240 nM.
A sequence measured in both rounds can read differently, since the two assays cover different ranges.
The authors' rule: three or more of the six replicates give a measured affinity, fewer mean a poor binder.

With MVNGIMDHLSKNTNNVA | ETTTRES | QQYDRLPLV [En_Gen] the result was 4.8 nM (6 of 6 replicates). Variant TISQSWVIESRNKNNVA | EMSTREN | QDYDRLPLS [En_HC] gave 4.4 nM (6 of 6 replicates). Variant KLGMSVGYESRNKSRVA | DNSTRES | QQYDRLPLS [En_HC] showed 160 nM (1 of 6 replicates). Variant KLYQATAMTSSVRNNVA | DLNERER | QQYFRLPLS [En_HC] showed 2.2 nM (6 of 6 replicates). Variant KISYMGEYFSTNHSSIA | QASTRVQ | QQYHRLPLS [En_HC] gave 2.3 nM (6 of 6 replicates). With KLYFNVGTMSHDKQSIA | DMERRED | QQYHRLPLS [En_HC] the result was 1.8 nM (6 of 6 replicates). For MISDLTMYGSRAKNSVA | DSSTRGS | QQYHRLPLS [En_HC], the assay gave 1.1 nM (6 of 6 replicates). Variant KSSGSVEMLSRNVNSVA | EASTREL | QQYHRLPLS [GP_Gibbs] showed 1.0 nM (6 of 6 replicates). Variant TISQSFMMENQFKNSVA | QASTREH | QCYDRLPLS [En_HC] gave 230 nM (1 of 6 replicates).

For KLSQSMLYEERNKNNVA | SASQREW | QQYHRLPLS [GP_Gibbs], the assay gave 360 pM (6 of 6 replicates). For MVLKEDFGEYAAKDNVA | NAAEKET | QHYARLPLV [En_Gibbs], the assay gave 3.1 nM (6 of 6 replicates). Variant KLVQLGDYESRNKNNVA | QASQREQ | QQYHRLPLS [GP_Gibbs] showed 1.4 nM (6 of 6 replicates). For KLSQMVDYESRNMNNVA | NASTRES | QDYHRLPLS [GP_Gibbs], the assay gave 920 pM (6 of 6 replicates). Variant KMSQSWLGQSWNKNSVA | NASQREH | QQYHRLPLS [GP_Gibbs] gave 6.8 nM (6 of 6 replicates). Variant TIGQTLMYGMRNRSNVA | EVSERLN | QQYDRLPLF [En_Gen] gave 81 nM (5 of 6 replicates). Variant KLGNMTGIESHAKNSLA | DANRRED | QQYHRLPLS [En_HC] gave 1.3 nM (6 of 6 replicates). Variant HISMSVGLTSFHKNSVA | ENSTREN | QQYDRLPLS [En_HC] showed 65 nM (3 of 6 replicates). For KIKLSNSVSLRGTRAIA | DGSTRAH | QQYHRLPLT [En_Gibbs], the assay gave 4.7 nM (6 of 6 replicates).

Variant MFSQGVMVGWLARNSVA | NSSTRES | QQYHRLPLS [En_HC] showed 3.5 nM (6 of 6 replicates). With MISDLTSYGLRNVNSVA | DLSTRGS | QQYDRLPLS [En_HC] the result was 3.0 nM (6 of 6 replicates). Variant NVSIKEPGNWMMMDSVA | HSSLRAE | QQYWRLPLM [En_Gibbs] gave 1.1 nM (6 of 6 replicates). Variant KIELSNSVSLRGTRAIA | DGSERAH | QQYHRLPLT [En_Gibbs] showed 910 pM (6 of 6 replicates). With MIYGANRELGLAANSIA | DNVTRYQ | QQYERLPLS [En_Gen] the result was 210 nM (1 of 6 replicates). With KVQYQLANSEAHTNPVA | DASVVCA | QQYDRLPLG [En_Gibbs] the result was 240 nM (6 of 6 replicates). With KISGTYQKESKNKNSVA | EMVNRES | QQYDRLPLS [En_HC] the result was 3.4 nM (6 of 6 replicates). Variant RLHEYFYMPENANNSIA | EKDYRAR | QQYYRLPLA [En_Gibbs] gave 22 nM (6 of 6 replicates). With MISEVLNTLTKEGSNVA | DLAERER | QQYFRLPLS [En_Gen] the result was 74 nM (5 of 6 replicates).

Variant KLSQSAPYEDRCFNSVA | HASTRES | QQYHRLPLS [GP_Gibbs] showed 72 nM (6 of 6 replicates). Variant KMGMAFQQDLMEEYSVA | DHMLRVT | QQYGRLPLS [En_Gibbs] showed 790 nM (2 of 6 replicates). With KISMLYNYASTNKNSIA | EMTTRES | QHYHRLPLS [En_HC] the result was nd (0 of 6 replicates). For KLDFSVLEESRNPNSVA | NASTRES | QDYHRLPLS [GP_Gibbs], the assay gave 1.3 nM (6 of 6 replicates). Variant NIYQAMHTLSQMKDNVA | DVNERGS | QQYYRLPLS [En_Gen] gave 960 pM (6 of 6 replicates). With HVNGEWNHGANRDNNIA | EAQLVAA | QDYFRLPFI [En_Gibbs] the result was 11 nM (6 of 6 replicates). Variant MFSQLVMTGSRTRNAVA | QASTREN | QQYHRLPLS [En_HC] showed 51 nM (6 of 6 replicates). Variant KLQEQKLYWSRNKNSVA | EASTRES | QQYHRLPLS [GP_Gibbs] showed 3.5 nM (6 of 6 replicates). Variant KLSWSVELESRLKNSVA | HASTREW | QQYHRLPLS [GP_Gibbs] showed 13 nM (6 of 6 replicates).

Variant ALKQTGSMMHAARKNVA | HADTRAA | QQYATLPLT [En_Gibbs] gave 25 nM (6 of 6 replicates). For MISMMVGTKGYNKNSVA | NAETRED | QQYHRLPLS [En_HC], the assay gave 19 nM (6 of 6 replicates). Variant MFSQGVMVGWLTRNSVA | NSETREK | QQYDRLPLI [En_HC] gave 350 nM (6 of 6 replicates). For HMSMLTLQGLRHRNSVA | QMTTRVN | QQYDRLPLA [En_Gen], the assay gave 41 nM (6 of 6 replicates). Variant SLMQFGGYESNNHNSIA | DLRTRES | QQYHRLPLS [En_HC] gave 2.6 nM (6 of 6 replicates). Variant ALALTLHQVDSQMNNIA | QGMERES | QQYNRLPLG [En_Gibbs] showed 45 nM (6 of 6 replicates). For KFMYSLEYQMHEQNNIA | HGNIKTV | QQYSRLPIY [En_Gibbs], the assay gave 8.3 nM (6 of 6 replicates). Variant KVSLSVMLESRNVNAVA | EASTRES | QDYHRLPLS [GP_Gibbs] gave 13 nM (6 of 6 replicates). Variant KLQQFVEYESRWKNSVA | HASTRLS | QQYHRLPLS [GP_Gibbs] showed 79 nM (5 of 6 replicates).

Variant HLKQVLNGVNKKSNSVA | HMNTREE | QQYDRLPLV [En_Gen] showed 8.4 nM (6 of 6 replicates). Variant HITYGMMVLGRHSKSIA | QAETRAK | QQYDRLPLI [En_Gen] showed 48 nM (6 of 6 replicates). Variant TIDLYTSYGNGENWAIA | DVSIKDY | QQYARLPLL [En_Gibbs] gave 56 nM (6 of 6 replicates). For MISQLYNMGTFAINSVA | QASLRNE | QQYDRLPLM [En_Gen], the assay gave 5.4 nM (6 of 6 replicates).

The last 7 entries again:

CDR-L1,CDR-L2,CDR-L3,group,Kd (apparent),seen in
KFMYSLEYQMHEQNNIA,HGNIKTV,QQYSRLPIY,En_Gibbs,8.3 nM,6/6
KVSLSVMLESRNVNAVA,EASTRES,QDYHRLPLS,GP_Gibbs,13 nM,6/6
KLQQFVEYESRWKNSVA,HASTRLS,QQYHRLPLS,GP_Gibbs,79 nM,5/6
HLKQVLNGVNKKSNSVA,HMNTREE,QQYDRLPLV,En_Gen,8.4 nM,6/6
HITYGMMVLGRHSKSIA,QAETRAK,QQYDRLPLI,En_Gen,48 nM,6/6
TIDLYTSYGNGENWAIA,DVSIKDY,QQYARLPLL,En_Gibbs,56 nM,6/6
MISQLYNMGTFAINSVA,QASLRNE,QQYDRLPLM,En_Gen,5.4 nM,6/6

Data: MIT Lincoln Laboratory AlphaSeq set, Li et al. 2023, doi:10.1038/s41467-023-39022-2, as distributed in FLAb.